Test results reported in patent publication US9701680B2, “Pyrimidine and pyridine compounds and their usage” (HUTCHISON MEDIPHARMA LIMITED, priority 2013, dated 2017).
Read-outs that look alike come from different tables or passages of the source.

Protein sequences, listed by entry. Tags and fused reporters are not part of them. Residues count along the entry.
UniProt P22607, 23-806 limits assumed: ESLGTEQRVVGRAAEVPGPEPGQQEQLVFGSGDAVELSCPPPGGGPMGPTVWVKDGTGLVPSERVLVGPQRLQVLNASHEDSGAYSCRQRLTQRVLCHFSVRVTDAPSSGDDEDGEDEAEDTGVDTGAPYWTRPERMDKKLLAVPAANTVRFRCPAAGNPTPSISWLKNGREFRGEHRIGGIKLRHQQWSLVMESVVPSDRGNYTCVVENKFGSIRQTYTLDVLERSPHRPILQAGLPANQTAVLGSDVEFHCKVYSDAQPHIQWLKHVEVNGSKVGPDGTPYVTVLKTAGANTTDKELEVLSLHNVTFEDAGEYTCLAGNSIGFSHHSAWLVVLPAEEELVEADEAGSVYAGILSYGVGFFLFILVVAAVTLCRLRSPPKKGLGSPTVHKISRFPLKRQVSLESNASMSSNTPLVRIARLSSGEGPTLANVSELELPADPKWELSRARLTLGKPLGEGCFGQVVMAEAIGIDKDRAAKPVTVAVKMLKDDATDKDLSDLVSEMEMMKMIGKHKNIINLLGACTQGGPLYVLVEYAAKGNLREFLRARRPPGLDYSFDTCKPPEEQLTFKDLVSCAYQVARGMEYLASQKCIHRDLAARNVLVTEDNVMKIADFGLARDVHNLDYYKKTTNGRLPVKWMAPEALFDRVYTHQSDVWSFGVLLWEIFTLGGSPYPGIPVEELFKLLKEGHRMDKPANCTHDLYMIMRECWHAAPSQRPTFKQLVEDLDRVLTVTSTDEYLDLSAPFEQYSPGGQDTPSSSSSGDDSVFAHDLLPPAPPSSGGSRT
UniProt P21802, 22-821 limits assumed: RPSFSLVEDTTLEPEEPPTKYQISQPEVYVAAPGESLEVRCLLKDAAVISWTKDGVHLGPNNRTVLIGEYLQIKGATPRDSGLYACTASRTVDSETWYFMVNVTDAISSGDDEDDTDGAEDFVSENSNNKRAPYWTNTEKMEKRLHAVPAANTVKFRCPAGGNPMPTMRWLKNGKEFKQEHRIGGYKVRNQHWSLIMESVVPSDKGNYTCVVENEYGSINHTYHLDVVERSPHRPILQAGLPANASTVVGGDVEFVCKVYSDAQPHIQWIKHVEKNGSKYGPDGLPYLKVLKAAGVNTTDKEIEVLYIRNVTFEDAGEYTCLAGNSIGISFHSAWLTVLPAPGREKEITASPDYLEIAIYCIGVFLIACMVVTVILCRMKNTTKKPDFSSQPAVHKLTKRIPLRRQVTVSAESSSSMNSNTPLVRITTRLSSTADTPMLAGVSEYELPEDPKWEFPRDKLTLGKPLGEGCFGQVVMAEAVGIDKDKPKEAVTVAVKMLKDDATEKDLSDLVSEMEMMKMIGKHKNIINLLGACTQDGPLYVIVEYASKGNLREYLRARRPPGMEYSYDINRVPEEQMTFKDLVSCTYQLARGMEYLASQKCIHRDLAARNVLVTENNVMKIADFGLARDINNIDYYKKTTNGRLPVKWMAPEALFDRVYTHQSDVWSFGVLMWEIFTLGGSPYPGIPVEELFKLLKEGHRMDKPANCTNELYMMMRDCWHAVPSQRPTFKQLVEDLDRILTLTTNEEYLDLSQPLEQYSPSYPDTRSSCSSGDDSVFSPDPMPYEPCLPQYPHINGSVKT
UniProt P11362, 22-822 limits assumed: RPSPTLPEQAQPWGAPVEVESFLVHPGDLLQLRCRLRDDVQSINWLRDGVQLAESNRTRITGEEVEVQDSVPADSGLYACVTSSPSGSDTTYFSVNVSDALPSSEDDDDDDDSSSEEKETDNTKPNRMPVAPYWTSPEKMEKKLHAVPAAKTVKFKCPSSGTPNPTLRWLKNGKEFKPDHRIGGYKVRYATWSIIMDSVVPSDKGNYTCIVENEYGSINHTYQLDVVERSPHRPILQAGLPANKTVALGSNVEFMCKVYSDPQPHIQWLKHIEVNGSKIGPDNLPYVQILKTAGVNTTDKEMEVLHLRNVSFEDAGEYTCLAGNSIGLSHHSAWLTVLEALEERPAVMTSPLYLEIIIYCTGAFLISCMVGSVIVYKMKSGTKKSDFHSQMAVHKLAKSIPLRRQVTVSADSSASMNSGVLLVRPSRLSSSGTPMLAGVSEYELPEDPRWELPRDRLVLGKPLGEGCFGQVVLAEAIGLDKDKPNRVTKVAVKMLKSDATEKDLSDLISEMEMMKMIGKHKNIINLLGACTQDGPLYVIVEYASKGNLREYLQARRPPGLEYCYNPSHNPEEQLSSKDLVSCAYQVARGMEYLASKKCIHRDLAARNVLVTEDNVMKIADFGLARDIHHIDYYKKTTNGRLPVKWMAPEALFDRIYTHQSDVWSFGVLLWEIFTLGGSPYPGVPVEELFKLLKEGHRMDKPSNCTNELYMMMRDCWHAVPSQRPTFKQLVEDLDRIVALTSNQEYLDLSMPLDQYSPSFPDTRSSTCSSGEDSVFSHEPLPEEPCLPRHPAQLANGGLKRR

Columns and labels:
[1] = target: FGFR3 kinase (Homo sapiens, UniProt P22607); assay: Z-Lyte Kinase Assay of FGFR3; assay type: biochemical; conditions: read-out: FGFR3 (Z-lyte) IC50
[2] = tested on: RT-112; assay: Cellular Proliferation Assay (Cell Counting Kit-8), RT-112; conditions: read-out: RT-112 IC50; RT-112 cells, 72 hours
[3] = target: Recombinant human FGFR2 (Homo sapiens, UniProt P21802); assay: Transcreener Kinase Assay of FGFR2; conditions: read-out: FGFR2 (FP) IC50
[4] = target: Recombinant human FGFR1 (Homo sapiens, UniProt P11362); assay: Transcreener Kinase Assay of FGFR1; assay type: biochemical; conditions: read-out: FGFR1 (FP) IC50
[5] = tested on: SNU-16; assay: Cellular Proliferation Assay (Cell Counting Kit-8), SNU-16; assay type: cell-based; conditions: read-out: SNU-16 IC50; SNU-16 cells, 72 hours
[6] = tested on: KG-1; assay: Cellular Proliferation Assay (Cell Counting Kit-8), KG-1; conditions: read-out: KG1 IC50; KG-1 cells, 72 hours

With `CNC(=O)c1cc(OC)c(F)c(COc2cnc(Nc3ccnc(N4C[C@@H](C)N[C@@H](C)C4)c3)nc2)c1F` the IC50 ([1]; Z-lyte) was 34 nM, the IC50 [2] was 80 nM and the IC50 ([3]; FP) was 23 nM. For the same molecule, the IC50 ([4]; FP) was 44 nM, the IC50 [5] was 37 nM and the IC50 [6] was 134 nM.
Molecule `CCN(CC)CCNC(=O)c1ccc(Nc2ncc(CCc3cc(C(=O)NC)cc(OC)c3F)cn2)cc1` has an IC50 [1] of 11 nM, an IC50 [2] of 560 nM and an IC50 [3] of 8 nM. The IC50 [4] was 19 nM, the IC50 [5] was 70 nM and the IC50 [6] was 805 nM.
